Measured values: patent US20070014736A1 (published 2007)

Biological target: T1, thyroid-stimulating hormone receptor (TSHR) expressed on BHK cells (BHK-TSHR cells) (UniProt P16473 21-764, limits assumed)
T1 construct: whole, on cells; also called TSH receptor
Test: radioligand saturation binding to BHK-TSHR cells, single-site non-linear regression
Procedure: Specific binding was determined in the presence (nonspecific binding) and absence (total binding) of unlabeled rhCGH (25.0 μg/ml) or TSH (10 μg/ml). Binding reactions were terminated by removing the binding medium and the cell monolayers were washed three times with 1.0-2.0 ml of ice-cold PBS containing 1.0 mg/ml BSA and twice with 1.0-2.0 ml of ice cold albumin-free PBS. Cells were solubilized in 1.0 ml of 1.0N NaOH for 10 min at room temperature and cell-associated radioactivity was determined in a gamma counter. The measured radioactivity was normalized to cell number that was determined on plates of cells cultured in parallel. Binding data were analyzed by non-linear regression using Prizm 3.0 (GraphPad Software, San Diego, Calif.).
Both ¹²⁵I-CGH and ¹²⁵I-TSH bound to BHK-TSHR cells in a time-dependent manner and reached an apparent steady state within 2 h at 4° C. Binding of both radiolabeled ligands was saturable, specific, and of high affinity (FIG. 1A-B). […] The ¹²⁵I-CGH specific-binding data were directly fitted to a two-site model by non-linear regression to yield the equilibrium dissociation constant (Kd) and the maximum amount bound (Bmax) to each of the sites at steady state. […] Little or no binding of ¹²⁵I-TSH or ¹²⁵I-CGH was observed, in contrast, to parental BHK cells lacking the TSHR (data not shown). […]

B1: human pituitary-derived TSH (BiosPacific) (ligand)
chain 1: not shown
chain 2: FCIPTEYTMHIERRECAYCLTINTTICAGYCMTRDINGKLFLPKYALSQDVCTYRDFIYRTVEIPGCPLHVAPYFSYPVALSCKCGKCNTDYSDCIHEAIKTNYCTKPQKSY
notes: Bought, pituitary-derived; also called human TSH
With B1 the Kd was 41 nM.
